Biological target: Hematopoietic prostaglandin D synthase (Homo sapiens, UniProt O60760)
Test: Inhibition of human recombinant HPGDS using PGH2 as substrate assessed as production of PGD2 preincubated for 10 mins prior substrate addition measured after 42 secs by TBA-based fluorescence assay

By UniProt entry, the sequences of proteins in these tests, tags left out. Where a name states a change or a piece, a line headed by the entry shows the natural chain unless it says otherwise.
UniProt O60760: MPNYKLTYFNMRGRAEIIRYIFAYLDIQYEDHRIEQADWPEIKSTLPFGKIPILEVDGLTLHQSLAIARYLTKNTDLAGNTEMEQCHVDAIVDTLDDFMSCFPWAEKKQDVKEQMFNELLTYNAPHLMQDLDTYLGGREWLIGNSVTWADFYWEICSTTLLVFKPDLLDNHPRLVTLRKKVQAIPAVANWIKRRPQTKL

NCc1ccc2ccccc2c1-c1ccc(C(=O)NCCN2CCOCC2)cc1
IC50: 0.845 µM
